Measured values as given in US20060115815A1 (priority 2002, published 2006).

Each compound was assayed against recombinant HIV-1 protease (Human immunodeficiency virus type 1 group M subtype B, UniProt P04585) (assay: biochemical). Conditions: not given.

Compound	IC50
Nc1cccc(CN2C(=O)N(Cc3cccc(C(=O)O)c3)C(Cc3ccccc3)C(O)C(O)C2Cc2ccccc2)c1 (centres unmarked)	18 nM
CCOP(=O)(CCCNC(=O)c1cccc(CN2C(=O)N(Cc3cccc(N)c3)C(Cc3ccccc3)C(O)C(O)C2Cc2ccccc2)c1)OCC (centres unmarked)	2.3 nM
Nc1n[nH]c2ccc(CN3C(=O)N(CCCOCP(=O)(O)O)C(Cc4ccccc4)C(O)C(O)C3Cc3ccccc3)cc12 (centres unmarked) [OCH2PO3H2]	59 nM

Same assay, conditions: Enzymatic assay Ki

Compound	Ki
CCOP(=O)(CCCNC(=O)c1cccc(CN2C(=O)N(Cc3cccc(N)c3)C(Cc3ccccc3)C(O)C(O)C2Cc2ccccc2)c1)OCC (centres unmarked)	< 4 pM
CCCCN1C(=O)N(Cc2ccc3[nH]nc(N)c3c2)C(Cc2ccccc2)C(O)C(O)C1Cc1ccccc1 (centres unmarked) [CH3 (DMP-851)]	33 pM

Same assay, conditions: HIV-1 protease inhibition Ki

Compound	Ki
CCCCOC(=O)CNP(=O)(COc1ccc(CC(NC(=O)OC2COC3OCCC23)C(O)CN(CC(C)C)S(=O)(=O)c2ccc(OC)cc2)cc1)NCC(=O)OCCCC (centres unmarked) [Compound 16b]	4.9 ± 1.8 pM

Same assay, conditions: Ki

Compound	Ki
COc1ccc(S(=O)(=O)N(CC(C)C)CC(O)C(Cc2ccc(CO)cc2)NC(=O)OC2COC3OCCC23)cc1 (centres unmarked)	< 10 pM
COc1ccc(S(=O)(=O)N(CC(C)C)CC(O)C(Cc2ccc(OCc3ccccc3)cc2)NC(=O)OC2COC3OCCC23)cc1 (centres unmarked)	< 10 pM
COc1ccc(S(=O)(=O)N(CCN(C)C)CC(O)C(Cc2ccc(OCc3ccccc3)cc2)NC(=O)OC2COC3OCCC23)cc1 (centres unmarked)	> 1000 pM
COc1ccc(S(=O)(=O)N(CC2CCN(C=O)CC2)CC(O)C(Cc2ccc(OCP(=O)(O)O)cc2)NC(=O)OC2COC3OCCC23)cc1 (centres unmarked)	10 to 100 pM
CCOP(=O)(COc1ccc(CC(NC(=O)OC2COC3OCCC23)C(O)CN(CC2CCN(C=O)CC2)S(=O)(=O)c2ccc(OC)cc2)cc1)OCC (centres unmarked)	10 to 100 pM
COc1ccc(S(=O)(=O)N(CC2CCN(C=O)CC2)CC(O)C(Cc2ccc(OCP(=O)(OCc3ccccc3)OCc3ccccc3)cc2)NC(=O)OC2COC3OCCC23)cc1 (centres unmarked)	10 to 100 pM
COc1ccc(S(=O)(=O)N(Cc2ccccc2)CC(O)C(Cc2ccccc2)NC(=O)OC2COC3OCCC23)cc1 (centres unmarked)	10 to 100 pM
COc1ccc(S(=O)(=O)N(CC(O)C(Cc2ccccc2)NC(=O)OC2COC3OCCC23)CC(C)(C)CO)cc1 (centres unmarked)	< 10 pM
Cc1cccc(C)c1OCC(=O)NC(Cc1ccc(OCP(=O)(OCc2ccccc2)OCc2ccccc2)cc1)C(O)CN(CC(C)C)S(=O)(=O)c1ccc(N)cc1 (centres unmarked)	100 to 1000 pM
CC(C)CN(CC(O)C(Cc1ccc(OCP(=O)(O)O)cc1)NC(=O)OC1COC2OCCC12)S(=O)(=O)c1ccc(N)cc1 (centres unmarked)	10 to 100 pM
CCOP(=O)(COc1ccc(CC(NC(=O)OC2COC3OCCC23)C(O)CN(CC(C)C)S(=O)(=O)c2ccc(N)cc2)cc1)OCC (centres unmarked)	10 to 100 pM
CCNc1ccc(S(=O)(=O)N(CC(C)C)CC(O)C(Cc2ccc(OCP(=O)(OCC)OCC)cc2)NC(=O)OC2COC3OCCC23)cc1 (centres unmarked)	10 to 100 pM
CC(C)CN(CC(O)C(Cc1ccc(OCP(=O)(OCc2ccccc2)OCc2ccccc2)cc1)NC(=O)OC1COC2OCCC12)S(=O)(=O)c1ccc(N)cc1 (centres unmarked)	10 to 100 pM
CC(C)CN(CC(O)C(Cc1ccc(OCP(=O)(O)O)cc1)NC(=O)OC1COC2OCCC12)S(=O)(=O)c1cccc(N)c1 (centres unmarked)	10 to 100 pM
CCOP(=O)(COc1ccc(CC(NC(=O)OC2COC3OCCC23)C(O)CN(CC(C)C)S(=O)(=O)c2cccc(N)c2)cc1)OCC (centres unmarked)	10 to 100 pM
CC(C)CN(CC(O)C(Cc1ccc(OCP(=O)(OCc2ccccc2)OCc2ccccc2)cc1)NC(=O)OC1COC2OCCC12)S(=O)(=O)c1cccc(N)c1 (centres unmarked)	10 to 100 pM
CC(C)CN(CC(O)C(Cc1ccc(OCP(=O)(O)O)cc1)NC(=O)OC1COC2OCCC12)S(=O)(=O)c1ccccc1 (centres unmarked)	10 to 100 pM
CC(C)CN(CC(O)C(Cc1ccc(OCP(=O)(OCc2ccccc2)OCc2ccccc2)cc1)NC(=O)OC1COC2OCCC12)S(=O)(=O)c1ccccc1 (centres unmarked)	10 to 100 pM

Compound	Ki
CC(C)CN(CC(O)C(Cc1ccc(OCP(=O)(O)O)cc1)NC(=O)OC1COC2OCCC12)S(=O)(=O)c1ccc(F)cc1 (centres unmarked)	10 to 100 pM
CC(C)CN(CC(O)C(Cc1ccc(OCP(=O)(OCc2ccccc2)OCc2ccccc2)cc1)NC(=O)OC1COC2OCCC12)S(=O)(=O)c1ccc(F)cc1 (centres unmarked)	10 to 100 pM
CC(C)CN(CC(O)C(Cc1ccc(OCP(=O)(O)O)cc1)NC(=O)OC1COC2OCCC12)S(=O)(=O)c1ccc(C(F)(F)F)cc1 (centres unmarked)	< 10 pM
CC(C)CN(CC(O)C(Cc1ccc(OCP(=O)(O)O)cc1)NC(=O)OC1COC2OCCC12)S(=O)(=O)c1ccc(OC(F)(F)F)cc1 (centres unmarked)	10 to 100 pM
CC(C)CN(CC(O)C(Cc1ccc(OCP(=O)(OCc2ccccc2)OCc2ccccc2)cc1)NC(=O)OC1COC2OCCC12)S(=O)(=O)c1ccc(OC(F)(F)F)cc1 (centres unmarked)	10 to 100 pM
CC(C)CN(CC(O)C(Cc1ccc(OCP(=O)(O)O)cc1)NC(=O)OC1COC2OCCC12)S(=O)(=O)c1ccc(CO)cc1 (centres unmarked)	10 to 100 pM
CC(C)CN(CC(O)C(Cc1ccccc1)NC(=O)OC1COC2OCCC12)S(=O)(=O)c1ccc(O)cc1 (centres unmarked)	< 10 pM
CC(C)CN(CC(O)C(Cc1ccccc1)NC(=O)OC1COC2OCCC12)S(=O)(=O)c1ccc(OCP(=O)(O)O)cc1 (centres unmarked)	< 10 pM
CCOP(=O)(COc1ccc(S(=O)(=O)N(CC(C)C)CC(O)C(Cc2ccccc2)NC(=O)OC2COC3OCCC23)cc1)OCC (centres unmarked)	10 to 100 pM
CC(C)CN(CC(O)C(Cc1ccccc1)NC(=O)OC1COC2OCCC12)S(=O)(=O)c1cccc(O)c1 (centres unmarked)	< 10 pM
COc1cccc(S(=O)(=O)N(CC(C)C)CC(O)C(Cc2ccccc2)NC(=O)OC2COC3OCCC23)c1 (centres unmarked)	< 10 pM
CC(C)CN(CC(O)C(Cc1ccccc1)NC(=O)OC1COC2OCCC12)S(=O)(=O)c1cccc(OCP(=O)(O)O)c1 (centres unmarked)	10 to 100 pM
CCOP(=O)(COc1cccc(S(=O)(=O)N(CC(C)C)CC(O)C(Cc2ccccc2)NC(=O)OC2COC3OCCC23)c1)OCC (centres unmarked)	< 10 pM
CC(C)CN(CC(O)C(Cc1ccccc1)NC(=O)OC1COC2OCCC12)S(=O)(=O)c1cccc(OCP(=O)(OCc2ccccc2)OCc2ccccc2)c1 (centres unmarked)	10 to 100 pM
COc1ccc(S(=O)(=O)N(CC(C)C)CC(O)C(Cc2ccccc2)NC(=O)OC2COC3OCCC23)cc1O (centres unmarked)	< 10 pM
COc1ccc(S(=O)(=O)N(CC(C)C)CC(O)C(Cc2ccccc2)NC(=O)OC2COC3OCCC23)cc1OCP(=O)(O)O (centres unmarked)	< 10 pM
CC(C)CN(CC(O)C(Cc1ccc(O)cc1)NC(=O)OC1COC2OCCC12)S(=O)(=O)c1cccc(N)c1 (centres unmarked) [OH, m-NH2]	10 to 100 pM
CC(C)CN(CC(O)C(Cc1ccc(O)cc1)NC(=O)OC1COC2OCCC12)S(=O)(=O)c1ccc(N)cc1 (centres unmarked) [OH, p-NH2]	10 to 100 pM

Same assay, conditions: Ki (pM)

Compound	Ki
CCOP(=O)(CN1CC=C(CC(NC(=O)OC2COC3OCCC23)C(O)CN(CC(C)C)S(=O)(=O)c2ccc(OC)cc2)CC1)OCC (centres unmarked)	10 to 100 pM
COc1ccc(S(=O)(=O)N(CC(C)C)CC(O)C(CC2=CCN(CCP(=O)(OCc3ccccc3)OCc3ccccc3)CC2)NC(=O)OC2COC3OCCC23)cc1 (centres unmarked)	10 to 100 pM
CCOP(=O)(Cc1ccc(NCC(NC(=O)OC2COC3OCCC23)C(O)CN(CC(C)C)S(=O)(=O)c2ccc(OC)cc2)cc1)OCC (centres unmarked)	10 to 100 pM
COc1ccc(S(=O)(=O)N(CC(C)C)CC(O)C(CNc2ccc(CP(=O)(OCc3ccccc3)OCc3ccccc3)cc2)NC(=O)OC2COC3OCCC23)cc1 (centres unmarked)	10 to 100 pM
CCOC(=O)C(C)NP(=O)(Cc1ccc(NCC(NC(=O)OC2COC3OCCC23)C(O)CN(CC(C)C)S(=O)(=O)c2ccc(OC)cc2)cc1)NC(C)C(=O)OCC (centres unmarked)	10 to 100 pM
CCOP(=O)(Cc1ccc(N(C)CC(NC(=O)OC2COC3OCCC23)C(O)CN(CC(C)C)S(=O)(=O)c2ccc(OC)cc2)cc1)OCC (centres unmarked)	10 to 100 pM
COc1ccc(S(=O)(=O)N(CC(C)C)CC(O)C(CNCc2ccc(P(=O)(O)O)cc2)NC(=O)OC2COC3OCCC23)cc1 (centres unmarked)	> 1000 pM
CCOP(=O)(OCC)c1ccc(CN(C)CC(NC(=O)OC2COC3OCCC23)C(O)CN(CC(C)C)S(=O)(=O)c2ccc(OC)cc2)cc1 (centres unmarked)	100 to 1000 pM
COc1ccc(S(=O)(=O)N(CC(C)C)CC(O)C(CN(C)Cc2ccc(P(=O)(O)O)cc2)NC(=O)OC2COC3OCCC23)cc1 (centres unmarked)	> 1000 pM
CCOP(=O)(Cc1ccc2c(c1)CCN(CC(NC(=O)OC1COC3OCCC13)C(O)CN(CC(C)C)S(=O)(=O)c1ccc(OC)cc1)C2)OCC (centres unmarked)	10 to 100 pM
CCOP(=O)(CNc1ccc(CC(NC(=O)OC2COC3OCCC23)C(O)CN(CC(C)C)S(=O)(=O)c2ccc(OC)cc2)cc1)OCC (centres unmarked)	< 10 pM
COc1ccc(S(=O)(=O)N(CC(C)C)CC(O)C(Cc2ccc(OCP(=O)(OCc3ccccc3)OCc3ccccc3)cc2)NC(=O)OC2COC3OCCC23)cc1 (centres unmarked) [drawing 651 R1=OBn R2=OBn]	10 to 100 pM
CCOP(=O)(OCC)c1ccc(CC(NC(=O)OC2COC3OCCC23)C(O)CN(CC(C)C)S(=O)(=O)c2ccc(OC)cc2)cc1 (centres unmarked) [drawing 653 R1=OEt R2=OEt]	< 10 pM
COc1ccc(S(=O)(=O)N(CC(C)C)CC(O)C(Cc2ccc(P(=O)(O)O)cc2)NC(=O)OC2COC3OCCC23)cc1 (centres unmarked) [drawing 653 R1=OH R2=OH]	10 to 100 pM
COc1ccc(S(=O)(=O)N(CC(C)C)CC(O)C(Cc2ccc(OCP(=O)(OCc3ccccc3)OC(C)C(=O)OCc3ccccc3)cc2)NC(=O)OC2COC3OCCC23)cc1 (centres unmarked) [drawing 658 R1=OBn R2=Lac-Bn]	10 to 100 pM
COc1ccc(S(=O)(=O)N(CC(C)C)CC(O)C(Cc2ccc(OCP(=O)(O)O)cc2)NC(=O)OC2COC3OCCC23)cc1 (centres unmarked) [drawing 661 R1=OH R2=OH]	10 to 100 pM
CCOP(=O)(CCNCc1ccc(CC(NC(=O)OC2COC3OCCC23)C(O)CN(CC(C)C)S(=O)(=O)c2ccc(OC)cc2)cc1)OCC (centres unmarked) [drawing 662 R1=Et R2=Et]	10 to 100 pM
COc1ccc(S(=O)(=O)N(CC(C)C)CC(O)C(Cc2ccc(CNCCP(=O)(O)O)cc2)NC(=O)OC2COC3OCCC23)cc1 (centres unmarked) [drawing 662 R1=H R2=H]	10 to 100 pM
COc1ccc(S(=O)(=O)N(CC(C)C)CC(O)C(Cc2ccc(CNCCP(=O)(O)OC(C)C(=O)O)cc2)NC(=O)OC2COC3OCCC23)cc1 (centres unmarked) [drawing 662 R1=H R2=Lac]	10 to 100 pM

Same assay, conditions: read-out: Ki

Compound	Ki
COc1ccc(S(=O)(=O)N(CC(C)C)CC(O)C(Cc2ccc(C)cc2)NC(=O)OC2COC3OCCC23)cc1 (centres unmarked)	10 to 100 pM
COc1ccc(S(=O)(=O)N(C[C@@H](O)[C@H](Cc2ccccc2)NC(=O)O[C@H]2CO[C@H]3OCC[C@H]32)CC(C)(C)COCP(=O)(O)O)cc1	10 to 100 pM
CCOC(=O)C(CC)NP(=O)(COc1ccc(C[C@H](NC(=O)O[C@H]2CO[C@H]3OCC[C@H]32)[C@H](O)CN(CC(C)C)S(=O)(=O)c2ccc(OC)cc2)cc1)NC(CC)C(=O)OCC (some centres unmarked) [drawing 655 R1=Aba-Et R2=Aba-Et]	< 10 pM
CCOC(=O)COP(=O)(COc1ccc(C[C@H](NC(=O)O[C@H]2CO[C@H]3OCC[C@H]32)[C@H](O)CN(CC(C)C)S(=O)(=O)c2ccc(OC)cc2)cc1)OCC(=O)OCC [drawing 656 R1=Glc-Et R2=Glc-Et]	< 10 pM
